# Reference: ChEMBL document CHEMBL3352780, “Discovery of Sulfonamidebenzamides as Selective Apoptotic CHOP Pathway Activators of the Unfolded Protein Response” (ACS Med Chem Lett, 2014)
# Test: Ratio of XBP1 mRNA expression in human UM-SCC-23 cells to CHOP mRNA expression in human UM-SCC-23 cells at 10 uM
# Type: functional
smiles,measurement,value
O=C(Nc1ccc(S(=O)(=O)N2CCC(Cl)CC2)cc1)c1ccc([N+](=O)[O-])o1,Ratio,5
